{"sequences": {"note": "The chains behind the UniProt entries cited, without tags or fusion partners.", "UniProt P14842, whole entry": "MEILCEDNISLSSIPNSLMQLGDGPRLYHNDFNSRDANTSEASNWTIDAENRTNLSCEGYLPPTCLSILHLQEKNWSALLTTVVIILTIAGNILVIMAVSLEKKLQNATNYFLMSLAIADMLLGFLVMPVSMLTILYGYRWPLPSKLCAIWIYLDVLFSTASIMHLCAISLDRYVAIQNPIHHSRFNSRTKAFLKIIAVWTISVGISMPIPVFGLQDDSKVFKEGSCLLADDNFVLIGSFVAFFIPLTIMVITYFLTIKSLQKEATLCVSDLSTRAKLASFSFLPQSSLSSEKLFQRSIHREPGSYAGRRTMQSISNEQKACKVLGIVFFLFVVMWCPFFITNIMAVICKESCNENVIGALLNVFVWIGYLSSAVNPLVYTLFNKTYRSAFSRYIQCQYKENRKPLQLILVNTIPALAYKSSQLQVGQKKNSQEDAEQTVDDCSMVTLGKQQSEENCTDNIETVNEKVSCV", "UniProt P19327, whole entry": "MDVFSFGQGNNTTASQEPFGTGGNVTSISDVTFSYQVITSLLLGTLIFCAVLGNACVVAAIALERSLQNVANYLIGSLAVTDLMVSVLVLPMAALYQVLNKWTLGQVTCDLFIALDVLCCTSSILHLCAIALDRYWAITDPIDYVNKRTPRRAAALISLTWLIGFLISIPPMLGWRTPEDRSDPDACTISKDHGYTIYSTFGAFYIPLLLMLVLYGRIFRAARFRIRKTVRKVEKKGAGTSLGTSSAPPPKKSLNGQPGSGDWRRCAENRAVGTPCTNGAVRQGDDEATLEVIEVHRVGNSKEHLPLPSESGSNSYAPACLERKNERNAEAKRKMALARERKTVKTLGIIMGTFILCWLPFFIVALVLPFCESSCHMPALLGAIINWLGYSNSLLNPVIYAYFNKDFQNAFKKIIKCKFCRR"}, "source": "patent US6579881B2", "about": "(Eisai Co., Ltd., priority 1997, dated 2003)", "key": {"[1]": {"molecular_target": "serotonin 2 receptor (Rattus norvegicus, UniProt P14842)", "experiment": "Binding test on [3H] ketanserin (serotonin 2 receptor)", "conditions": "read-out: 5HT2; [3H] ketanserin 0.3 nM, receptor fraction of rat cerebral cortex"}, "[2]": {"molecular_target": "serotonin 1A receptor (Rattus norvegicus, UniProt P19327)", "experiment": "Binding test on [3H] 8-hydroxy-dipropylaminotetralin (serotonin 1A receptor)", "conditions": "read-out: 5HT1a; [3H] 8-OH-DPAT 0.5 nM, receptor fraction of rat hippocampus"}}, "data": [{"smiles": "Cc1nc2sccn2c(=O)c1CCN1CCC(N2CCc3ccccc32)CC1", "note": "[Co. No. 5 given in WO96/23784, 1-{1-[2-(5-oxo-7-methyl-5H-pyrimidino[2,1-b][1,3]thiazol-6-yl)ethyl]piperidin-4-yl}indoline, reference compound]", "values": [{"measurement": "Ki", "setting": "[1]", "value": 0.0004, "unit": "µM"}, {"measurement": "Ki", "setting": "[2]", "value": 0.0725, "unit": "µM"}]}]}
